## Ab-95 light chain CDR variants: yeast mating affinities

Data: MIT Lincoln Laboratory AlphaSeq set, Engelhart et al. 2022, doi:10.1038/s41597-022-01779-4, as distributed in FLAb.

Target peptide (SARS-CoV-2 spike, HR2 region): PDVDLGDISGINAS

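The starting antibody came from a phage panning campaign against this peptide. Variants in AAYL52 differ from the parent at up to three CDR positions; double and triple changes were sampled at random. Affinity was read by AlphaSeq, a pooled yeast mating assay with surface-displayed partners. Pairs that bind mate more often; barcode pairs of the diploids are counted by sequencing. Each replicate has its own calibration line, from reference interactions of the BCL2 family. Each pool was mated in three replicate cultures.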

Ab-95 is the parent antibody, in scFv form: VH, then three GGGGS repeats, then VL. The heavy chain is unchanged in all variants.
VH: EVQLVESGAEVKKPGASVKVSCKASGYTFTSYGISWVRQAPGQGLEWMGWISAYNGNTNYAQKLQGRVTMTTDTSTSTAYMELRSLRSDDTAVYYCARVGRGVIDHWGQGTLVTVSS
VL: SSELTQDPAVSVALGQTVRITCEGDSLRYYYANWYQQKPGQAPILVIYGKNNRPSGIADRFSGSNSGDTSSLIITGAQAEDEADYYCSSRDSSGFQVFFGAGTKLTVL

Each variant is given by its three light chain CDRs, as the data file delimits them; those of the parent are EGDSLRYYYAN, GKNNRPS, SSRDSSGFQVF. This list gathers variants with a substitution at N33 (VL, numbered from residue 1). The Kd shown is the geometric mean over detected replicates; a lower Kd is a better binder. Where no diploid with the target was found in any replicate, the entry reads "no signal": below detection, most likely a poor binder, though not proof of it. Background: pairings of library AAYL52 with three empty control strains gave a value in 28% of cases (median 8.2 µM, 5th percentile 800 nM). Values in that range, when seen in few replicates, are hard to tell from nonspecific mating. Also given: how often the same scFv was detected with the empty control strains.

EGMSLFYYYAV, GKNNRPS, SSRDSSGFQVF: no signal (0 of 3 replicates; controls 0 of 9).
EGDSLRYYYAP, GKNNRPS, SSDKSSGFQVF: 420 µM (1 of 3 replicates; controls 1 of 9).
EGDSLRYYYAI, GKNNRPS, SSRDKSGFQVF: 33 nM (3 of 3 replicates; controls 2 of 9).
EGDSLRYYYAA, GKNNRPS, SSRDSSGFQVF: 9.8 µM (3 of 3 replicates; controls 4 of 9).
EGDSLCYYYAE, GKNNRPS, SSRDSSGRQVF: 1.5 µM (3 of 3 replicates; controls 6 of 9).
EGDKLRYYYAK, GKNNRPS, SSRDSSGDQVF: 27 µM (1 of 3 replicates; controls 4 of 9).
EGDSLRYYYAG, GKNNRPS, SSRSSSGFQVG: 2.4 µM (3 of 3 replicates; controls 2 of 9).
EGDSLRYYFAP, TKNNRPS, SSRDSSGFQVF: no signal (0 of 3 replicates; controls 3 of 9).
EGDSLRYYYGK, GKNQRPS, SSRDSSGFQVF: no signal (0 of 3 replicates; controls 1 of 9).
EGDSHRYYYAG, GKNNRPS, SSRASSGFQVF: 4.1 µM (3 of 3 replicates; controls 4 of 9).
HGDSLRYYYAC, GKNNRPS, SSRDSSGFQVG: 4.5 µM (3 of 3 replicates; controls 1 of 9).
EGDSLRYYEAM, GKNNRPS, SSRDSSLFQVF: 4.9 µM (3 of 3 replicates; controls 6 of 9).
EGDSKRYYYAV, GKNNRKS, SSRDSSGFQVF: 13 µM (1 of 3 replicates; controls 4 of 9).
EHDSLRYYYAK, GKNFRPS, SSRDSSGFQVF: 3.7 µM (2 of 3 replicates; controls 5 of 9).
EGDSLRCYYAV, GKNNRPS, SSRDISGFQVF: no signal (0 of 3 replicates; controls 1 of 9).
EGDSLRGYYAL, GKNARPS, SSRDSSGFQVF: 3.1 µM (2 of 3 replicates; controls 5 of 9).
EGDSLRYYYAT, GKNNLPS, SSRDSSMFQVF: no signal (0 of 3 replicates; controls 3 of 9).
EGDSLRYYYAM, GKNNRPS, SSRDSGGFQSF: 5.5 µM (2 of 3 replicates; controls 3 of 9).
LGDSLRYYYAE, GKNNRPS, GSRDSSGFQVF: 230 µM (1 of 3 replicates; controls 3 of 9).
EGDSLRYYDAY, GKNNRPS, SSRDSKGFQVF: 4.6 µM (1 of 3 replicates; controls 0 of 9).
EGDSLQYYYAR, GKNNRPS, SSVDSSGFQVF: 20 µM (2 of 3 replicates; controls 0 of 9).
EGISVRYYYAR, GKNNRPS, SSRDSSGFQVF: 13 µM (1 of 3 replicates; controls 0 of 9).
EGDSLRYYYAP, GKNNRPS, HSRDKSGFQVF: no signal (0 of 3 replicates; controls 1 of 9).
EGDSLRYYYAK, GKNNRPS, SSRDSSIHQVF: 17 µM (1 of 3 replicates; controls 2 of 9).
EGDSLRYNYAP, GKNNRCS, SSRDSSGFQVF: 200 nM (3 of 3 replicates; controls 5 of 9).
EGDDLRYYYAS, GKNNRPS, SSRDSSGFQVF: 110 nM (3 of 3 replicates; controls 6 of 9).
EGDSLRWYYAY, GKNNRPS, SSRDSSCFQVF: 3.3 µM (3 of 3 replicates; controls 1 of 9).
EIDSLRYYYAH, GTNNRPS, SSRDSSGFQVF: 3.0 µM (1 of 3 replicates; controls 1 of 9).
EPDSLRYYYAC, GKNNRPS, SSRDSAGFQVF: 6.3 µM (2 of 3 replicates; controls 2 of 9).
EGDSLRYYYAF, GKNNRPS, SNRDSSGRQVF: 5.7 µM (2 of 3 replicates; controls 4 of 9).
YGDSLRYYYAQ, GKNNRPS, SSRDSSGFNVF: 5.9 µM (2 of 3 replicates; controls 5 of 9).
EGDSLRYYYAE, GKENRPS, SSRDSGGFQVF: 3.6 µM (2 of 3 replicates; controls 1 of 9).
EGDSLRYYYDW, GKNNRPS, SSRDSSAFQVF: 15 µM (3 of 3 replicates; controls 1 of 9).
EGDSLRYYFAD, RKNNRPS, SSRDSSGFQVF: 17 µM (1 of 3 replicates; controls 3 of 9).
EGDSLRYYYAI, GKNYRPS, SSRDSSRFQVF: 860 nM (1 of 3 replicates; controls 2 of 9).
EGDSLRYYYCL, GKNNRPS, SSRDSSGFQVC: 170 µM (2 of 3 replicates; controls 3 of 9).
RGDSTRYYYAP, GKNNRPS, SSRDSSGFQVF: 9.3 µM (3 of 3 replicates; controls 2 of 9).
EGDYLRYYYAT, GKNNRPS, SSRDSEGFQVF: no signal (0 of 3 replicates; controls 3 of 9).
EGDSLRYYYAQ, GKNNRPS, SSRDSSRFCVF: 96 µM (1 of 3 replicates; controls 2 of 9).
LGDSLRYYYAC, GKNNRPS, SNRDSSGFQVF: 58 µM (2 of 3 replicates; controls 3 of 9).
EGDSLRYYYAM, PKNNRPS, SARDSSGFQVF: 60 µM (2 of 3 replicates; controls 5 of 9).
EGDSLRYYYAM, GKNNRPW, SSFDSSGFQVF: 770 nM (1 of 3 replicates; controls 0 of 9).
VGDSLRYYYAT, GKNNRPS, SSRDSSGFQIF: 5.5 µM (1 of 3 replicates; controls 6 of 9).
EGDSLAYYYAS, GKANRPS, SSRDSSGFQVF: 2.8 µM (3 of 3 replicates; controls 6 of 9).
EGDSLRYYYAM, GHNNRPS, SNRDSSGFQVF: 8.6 µM (2 of 3 replicates; controls 2 of 9).

The closing 5 entries, repeated:

| CDR-L1 | CDR-L2 | CDR-L3 | apparent Kd | detected | empty controls |
|---|---|---|---|---|---|
| EGDSLRYYYAM | PKNNRPS | SARDSSGFQVF | 60 µM | 2 of 3 | 5 of 9 |
| EGDSLRYYYAM | GKNNRPW | SSFDSSGFQVF | 770 nM | 1 of 3 | 0 of 9 |
| VGDSLRYYYAT | GKNNRPS | SSRDSSGFQIF | 5.5 µM | 1 of 3 | 6 of 9 |
| EGDSLAYYYAS | GKANRPS | SSRDSSGFQVF | 2.8 µM | 3 of 3 | 6 of 9 |
| EGDSLRYYYAM | GHNNRPS | SNRDSSGFQVF | 8.6 µM | 2 of 3 | 2 of 9 |

For reference, the parent read 200 nM as the reference entry and 180 nM as a member of this library.